This is an account of results in article PMC6284057, “Combined Antibacterial Effects of Goat Cathelicidins With Different Mechanisms of Action” (Frontiers in Microbiology, 2018).

Values after ≈ are worked out from the molar mass of the structure shown. Like-named read-outs stand apart in the source and are kept apart here.

This experiment relates to E. cloacae (XDR CI 4172). In kind it is cell-based, Enterobacter cloacae. Particulars: Mueller-Hinton broth, 10^6 CFU/ml, 0.1% BSA, 37°C, 24 h, median of at least 3 experiments. Here is the method:
Antimicrobial assay was performed as described previously ([Panteleev et al., 2017b]). Briefly, mid-log phase bacterial test cultures were diluted with the 2× Mueller-Hinton broth (MH, Sigma) supplemented with 1.8% NaCl or without it so that to reach a final cell concentration of 10^6 CFU/ml. 50 μl aliquots of the obtained bacterial suspension were added to 50 μl of the peptide solutions serially diluted with 0.1% water solution of bovine serum albumin (BSA) in 96-well flat-bottom polystyrene microplates (Eppendorf #0030730011). After incubation at 37°C and 900 rpm for 24 h the minimum inhibitory concentrations (MIC) were determined as the lowest peptide concentrations that prevented growth of a test microorganism observed as visible turbidity. The results were expressed as the median values determined on the basis of at least three independent experiments performed in triplicate.

The compound `CC[C@H](C)[C@H](NC(=O)CN)C(=O)NCC(=O)N[C@@H](C)C(=O)N[C@H](C(=O)N[C@@H](CC(C)C)C(=O)N[C@@H](CCCCN)C(=O)N[C@H](C(=O)N[C@@H](CC(C)C)C(=O)N[C@H](C(=O)N[C@H](C(=O)NCC(=O)N[C@@H](CC(C)C)C(=O)N1CCC[C@H]1C(=O)N[C@@H](C)C(=O)N[C@@H](CC(C)C)C(=O)N[C@H](C(=O)N[C@@H](CO)C(=O)N[C@@H](Cc1c[nH]c2ccccc12)C(=O)N[C@H](C(=O)N[C@@H](CCCCN)C(=O)N[C@@H](CCCNC(=N)N)C(=O)N[C@@H](CCCCN)C(=O)N[C@@H](CCCNC(=N)N)C(=O)N[C@@H](CCC(N)=O)C(=O)N[C@@H](CCC(N)=O)C(N)=O)[C@@H](C)CC)[C@@H](C)CC)[C@@H](C)O)[C@@H](C)O)C(C)C)C(C)C` [Melittin, reference compound] came in with a Minimum inhibitory concentration (0.9% NaCl) of 8 µM (≈ 22.8 µg/mL) and a Minimum inhibitory concentration (Without NaCl) of 2 µM (≈ 5.69 µg/mL).
